Measured values reported in publication PMC8291497 (ACS Chemical Biology, 2021).
Residue numbers refer to the chain shown, from its start.

Key:
[1] = target: T1, Mint2 PTB 364-538 (without the ARM linker) (Homo sapiens, UniProt Q99767, Y524W); experiment: Stopped flow binding kinetics, APP peptides to PTB
T1 construct: PTB without the ARM linker (residues 364–538); made in house; host or cells: Escherichia coli BL21(DE3)pLysS
T1 sequence (Q99767 364-538 Y524W): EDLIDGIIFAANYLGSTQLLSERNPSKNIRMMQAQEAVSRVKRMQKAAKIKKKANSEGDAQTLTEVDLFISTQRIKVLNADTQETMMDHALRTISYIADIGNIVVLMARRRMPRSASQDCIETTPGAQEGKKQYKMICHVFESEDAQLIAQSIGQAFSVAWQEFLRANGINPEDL
Experimental: (§1) Kinetic binding rate constants were obtained using an upgraded SX17 stopped flow spectrometer (Applied Photophysics), and all experiments were conducted at 25 °C in 500 mM NaCl and 25 mM HEPES (pH 7.4). The relatively high NaCl concentration was used to improve the solubility of the proteins. The change in tryptophan fluorescence was measured using a band-pass filter (excitation at 280 nm and emission at 330 ± 30 nm) when mixing varying concentrations (2–50 μM) of the dansyl peptides with 1 μM protein or 0.5 μM semisynthetic proteins. […] For PTB variants, we used the kobs value from the fast kinetic phase for the analysis. […] We report the errors in kon and koff from the curve fitting. […] For these koff determinations, we report the standard error of the mean of three replicates. Φ values were defined as ΔΔGTS/ΔΔGeq, where ΔΔGTS = RT ln(kon^WT/kon^mut.) and ΔΔGeq = RT ln(Kd^mut./Keq^WT). Calculated coupling free energies were defined as ΔΔΔGEq = RT ln(Kd^mut.:WTKd^WT:mut./Kd^WT:WTKd^mut.:mut.) or ΔΔΔGTS = RT ln(kon^WT:WTkon^mut.:mut./kon^mut.:WTkon^WT:mut.) as previously described.[27] Propagated errors are reported.

[2] = target: T2, Mint2 PARM 364-570 (Y524W, Y543A) (Homo sapiens, UniProt Q99767, Y524W/Y543A); experiment: Stopped flow binding kinetics, APP peptides to PARM^Y543A; set-up: PARM domain (residues 364–570, i.e., PTB and the ARM linker); made in house; host or cells: Escherichia coli BL21(DE3)pLysS
T2 sequence (Q99767 364-570 Y524W/Y543A): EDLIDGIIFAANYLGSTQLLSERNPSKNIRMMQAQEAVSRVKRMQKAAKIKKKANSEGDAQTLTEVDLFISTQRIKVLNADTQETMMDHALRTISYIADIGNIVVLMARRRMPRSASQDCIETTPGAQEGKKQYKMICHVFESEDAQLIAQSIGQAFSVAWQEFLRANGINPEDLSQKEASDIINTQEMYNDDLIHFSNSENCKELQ
Experimental: as §1

[3] = target: T3, Mint2 PARM 364-570 (Y524W), pWT PARM (PTB domain and ARM linker) (Homo sapiens, UniProt Q99767, Y524W); experiment: Stopped flow binding kinetics, APP peptides to PARM (pseudo-wild type)
T3 construct: PARM domain (residues 364–570, i.e., PTB and the ARM linker) containing the Y524W mutation; made in house; host or cells: Escherichia coli BL21(DE3)pLysS
T3 sequence (Q99767 364-570 Y524W): T2 sequence (Q99767 364-570 Y524W/Y543A) with A180Y
Experimental: as §1

[4] = target: T4, Mint2 PARM 364-570 (Y524W, Y543E) (Homo sapiens, UniProt Q99767, Y524W/Y543E); experiment: Stopped flow binding kinetics, APP peptides to PARM^Y543E; set-up: PARM domain (residues 364–570, i.e., PTB and the ARM linker); made in house; host or cells: Escherichia coli BL21(DE3)pLysS
T4 sequence (Q99767 364-570 Y524W/Y543E): T2 sequence (Q99767 364-570 Y524W/Y543A) with A180E
Experimental: as §1

In the case of `C[C@@H](O)[C@H](NC(=O)[C@@H]1CCCN1C(=O)[C@H](CC(N)=O)NC(=O)[C@H](CCC(=O)O)NC(=O)[C@H](Cc1ccc(O)cc1)NC(=O)CNC(=O)[C@H](CC(N)=O)NC(=O)CNC(=O)[C@H](CC(N)=O)NC(=O)[C@H](CC(N)=O)NS(=O)(=O)c1cccc2c(N(C)C)cccc12)C(=O)N[C@@H](Cc1ccc(O)cc1)C(=O)N[C@@H](CCCCN)C(=O)NCC(=O)N[C@@H](Cc1ccccc1)C(=O)N[C@@H](CCC(=O)O)C(=O)O` [Peptide F764G], the Kd [1] is reported as 8.3 µM and the Kd [2] is reported as 133 ± 4 µM.
With `C[C@@H](O)[C@H](NC(=O)[C@@H]1CCCN1C(=O)[C@H](CC(N)=O)NC(=O)[C@H](CCC(=O)O)NC(=O)[C@H](Cc1ccc(O)cc1)NC(=O)CNC(=O)[C@H](CC(N)=O)NC(=O)CNC(=O)[C@H](CC(N)=O)NC(=O)[C@H](CC(N)=O)NS(=O)(=O)c1cccc2c(N(C)C)cccc12)C(=O)N[C@@H](Cc1ccc(O)cc1)C(=O)NCC(=O)N[C@@H](Cc1ccccc1)C(=O)N[C@@H](Cc1ccccc1)C(=O)N[C@@H](CCC(=O)O)C(=O)O` [Peptide K763G] the Kd [1] was 1.2 µM, the Kd [3] was 28 ± 0.8 µM and the Kd [4] was 11 ± 0.4 µM.
`C[C@H](NC(=O)[C@H](CC(N)=O)NC(=O)[C@H](CCC(=O)O)NC(=O)[C@H](Cc1ccc(O)cc1)NC(=O)CNC(=O)[C@H](CC(N)=O)NC(=O)CNC(=O)[C@H](CC(N)=O)NC(=O)[C@H](CC(N)=O)NS(=O)(=O)c1cccc2c(N(C)C)cccc12)C(=O)N[C@H](C(=O)N[C@@H](Cc1ccc(O)cc1)C(=O)N[C@@H](CCCCN)C(=O)N[C@@H](Cc1ccccc1)C(=O)N[C@@H](Cc1ccccc1)C(=O)N[C@@H](CCC(=O)O)C(=O)O)[C@@H](C)O` [Peptide P760A] was tested, and the Kd [1] was 2.3 µM, the Kd [2] was 19 ± 0.7 µM and the Kd [3] was 56 ± 2 µM. For the same compound, the Kd [4] was 19 ± 0.2 µM.
`C[C@@H](O)[C@H](NC(=O)CNC(=O)[C@H](CC(N)=O)NC(=O)[C@H](CCC(=O)O)NC(=O)[C@H](Cc1ccc(O)cc1)NC(=O)CNC(=O)[C@H](CC(N)=O)NC(=O)CNC(=O)[C@H](CC(N)=O)NC(=O)[C@H](CC(N)=O)NS(=O)(=O)c1cccc2c(N(C)C)cccc12)C(=O)N[C@@H](Cc1ccc(O)cc1)C(=O)N[C@@H](CCCCN)C(=O)N[C@@H](Cc1ccccc1)C(=O)N[C@@H](Cc1ccccc1)C(=O)N[C@@H](CCC(=O)O)C(=O)O` [Peptide P760G] showed a Kd [1] of 23 ± 10 µM.
Work on `C[C@@H](O)[C@H](NC(=O)[C@@H]1CCCN1C(=O)[C@H](CC(N)=O)NC(=O)[C@H](CCC(=O)O)NC(=O)[C@H](Cc1ccc(O)cc1)NC(=O)CNC(=O)[C@H](CC(N)=O)NC(=O)CNC(=O)[C@H](CC(N)=O)NC(=O)[C@H](CC(N)=O)NS(=O)(=O)c1cccc2c(N(C)C)cccc12)C(=O)N[C@@H](Cc1ccccc1)C(=O)N[C@@H](CCCCN)C(=O)N[C@@H](Cc1ccccc1)C(=O)N[C@@H](Cc1ccccc1)C(=O)N[C@@H](CCC(=O)O)C(=O)O` [Peptide Y762F] yielded a Kd [1] of 0.22 µM, a Kd [2] of 1.2 µM and a Kd [4] of 1.6 µM.
Compound `C[C@@H](O)[C@H](NC(=O)[C@@H]1CCCN1C(=O)[C@H](CC(N)=O)NC(=O)[C@H](CCC(=O)O)NC(=O)[C@H](Cc1ccc(O)cc1)NC(=O)CNC(=O)[C@H](CC(N)=O)NC(=O)CNC(=O)[C@H](CC(N)=O)NC(=O)[C@H](CC(N)=O)NS(=O)(=O)c1cccc2c(N(C)C)cccc12)C(=O)N[C@@H](Cc1ccc(OP(=O)(O)O)cc1)C(=O)N[C@@H](CCCCN)C(=O)N[C@@H](Cc1ccccc1)C(=O)N[C@@H](Cc1ccccc1)C(=O)N[C@@H](CCC(=O)O)C(=O)O` [Peptide Y762pY] has a Kd [1] of 7.8 µM, a Kd [2] of 101 ± 5 µM and a Kd [4] of 91 ± 13 µM.
